CycPeptMPDB entries from one study

Collected by the curators of CycPeptMPDB (Li et al. 2023) from Kelly et al. 2021, doi:10.1021/jacs.0c06115.

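Conditions beyond the assay type are not listed; see the original paper. Other peptides of the study may be missing here. Peptides that the database sets to -10, its floor, are left out.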

PAMPA measures passive passage through an artificial lipid membrane.
Permeability is in 10^-6 cm/s, converted from the database's log10 values; higher is more permeable.

| SMILES | PAMPA (10^-6 cm/s) |
|---|---|
| CC(=O)N1CCC[C@H]1C(=O)N[C@@H]1C(=O)N[C@H](CC(C)C)C(=O)N(C)[C@H](CC(C)C)C(=O)N(C)[C@H](CC(C)C)C(=O)N(C)[C@@H](CC(C)C)C(=O)N[C@@H](C)C(=O)N[C@@H](CC(C)C)C(=O)N2CCC[C@@H]2C(=O)O[C@@H]1C | 3.9 |
| CC(=O)N1CCC[C@H]1C(=O)N(C)[C@@H](CC(C)C)C(=O)N[C@@H]1C(=O)N[C@H](CC(C)C)C(=O)N[C@@H](CC(C)C)C(=O)N(C)[C@H](CC(C)C)C(=O)N[C@H](C)C(=O)N[C@@H](CC(C)C)C(=O)N2CCC[C@@H]2C(=O)O[C@@H]1C | 4.6 |
| CC(=O)N1CCC[C@H]1C(=O)N(C)[C@H](CC(C)C)C(=O)N[C@@H]1C(=O)N[C@@H](CC(C)C)C(=O)N(C)[C@@H](CC(C)C)C(=O)N[C@H](CC(C)C)C(=O)N[C@@H](C)C(=O)N[C@@H](CC(C)C)C(=O)N2CCC[C@H]2C(=O)O[C@@H]1C | 0.13 |
| CC(=O)N1CCC[C@H]1C(=O)N(C)[C@H](CC(C)C)C(=O)N[C@@H]1C(=O)N[C@@H](CC(C)C)C(=O)N[C@@H](CC(C)C)C(=O)N[C@H](CC(C)C)C(=O)N[C@H](C)C(=O)N[C@@H](CC(C)C)C(=O)N2CCC[C@H]2C(=O)O[C@@H]1C | 0.49 |
| CC(=O)N1CCC[C@@H]1C(=O)N(C)[C@@H](CC(C)C)C(=O)N[C@@H]1C(=O)N[C@@H](CC(C)C)C(=O)N[C@@H](CC(C)C)C(=O)N(C)[C@@H](CC(C)C)C(=O)N(C)[C@@H](C)C(=O)N[C@@H](CC(C)C)C(=O)N2CCC[C@@H]2C(=O)O[C@@H]1C | 0.29 |
| CC(=O)N1CCC[C@@H]1C(=O)N(C)[C@@H](CC(C)C)C(=O)N[C@@H]1C(=O)N(C)[C@@H](CC(C)C)C(=O)N(C)[C@H](CC(C)C)C(=O)N(C)[C@H](CC(C)C)C(=O)N(C)[C@@H](C)C(=O)N[C@@H](CC(C)C)C(=O)N2CCC[C@@H]2C(=O)O[C@@H]1C | 3.8 |
| CC(=O)N1CCC[C@H]1C(=O)N(C)[C@@H](CC(C)C)C(=O)N[C@@H]1C(=O)N(C)[C@@H](CC(C)C)C(=O)N[C@H](CC(C)C)C(=O)N(C)[C@@H](CC(C)C)C(=O)N(C)[C@@H](C)C(=O)N[C@@H](CC(C)C)C(=O)N2CCC[C@H]2C(=O)O[C@@H]1C | 1.6 |
| CC(=O)N1CCC[C@H]1C(=O)N(C)[C@@H](CC(C)C)C(=O)N[C@@H]1C(=O)N(C)[C@H](CC(C)C)C(=O)N[C@@H](CC(C)C)C(=O)N(C)[C@H](CC(C)C)C(=O)N(C)[C@H](C)C(=O)N[C@H](CC(C)C)C(=O)N2CCC[C@@H]2C(=O)O[C@@H]1C | 1.3 |
| CC(=O)N1CCC[C@@H]1C(=O)N(C)[C@@H](CC(C)C)C(=O)N[C@@H]1C(=O)N[C@H](CC(C)C)C(=O)N[C@@H](CC(C)C)C(=O)N[C@H](CC(C)C)C(=O)N(C)[C@@H](C)C(=O)N[C@H](CC(C)C)C(=O)N2CCC[C@H]2C(=O)O[C@@H]1C | 0.52 |
| CC(=O)N1CCC[C@@H]1C(=O)N(C)[C@H](CC(C)C)C(=O)N[C@@H]1C(=O)N(C)[C@@H](CC(C)C)C(=O)N(C)[C@@H](CC(C)C)C(=O)N[C@@H](CC(C)C)C(=O)N(C)[C@H](C)C(=O)N[C@@H](CC(C)C)C(=O)N2CCC[C@@H]2C(=O)O[C@@H]1C | 3.7 |
| CC(=O)N1CCC[C@@H]1C(=O)N(C)[C@@H](CC(C)C)C(=O)N[C@@H]1C(=O)N[C@@H](CC(C)C)C(=O)N[C@H](CC(C)C)C(=O)N[C@H](CC(C)C)C(=O)N[C@H](C)C(=O)N[C@@H](CC(C)C)C(=O)N2CCC[C@@H]2C(=O)O[C@@H]1C | 0.44 |
| CC(=O)N1CCC[C@H]1C(=O)N(C)[C@@H](CC(C)C)C(=O)N[C@@H]1C(=O)N(C)[C@H](CC(C)C)C(=O)N[C@H](CC(C)C)C(=O)N(C)[C@@H](CC(C)C)C(=O)N(C)[C@@H](C)C(=O)N[C@H](CC(C)C)C(=O)N2CCC[C@H]2C(=O)O[C@@H]1C | 3.2 |
| CC(=O)N1CCC[C@H]1C(=O)N(C)[C@@H](CC(C)C)C(=O)N[C@@H]1C(=O)N(C)[C@H](CC(C)C)C(=O)N[C@H](CC(C)C)C(=O)N(C)[C@@H](CC(C)C)C(=O)N(C)[C@H](C)C(=O)N[C@H](CC(C)C)C(=O)N2CCC[C@@H]2C(=O)O[C@@H]1C | 1.5 |
| CC(=O)N1CCC[C@@H]1C(=O)N(C)[C@@H](CC(C)C)C(=O)N[C@@H]1C(=O)N(C)[C@H](CC(C)C)C(=O)N[C@@H](CC(C)C)C(=O)N(C)[C@H](CC(C)C)C(=O)N(C)[C@H](C)C(=O)N[C@@H](CC(C)C)C(=O)N2CCC[C@@H]2C(=O)O[C@@H]1C | 2.1 |
| CC(=O)N1CCC[C@H]1C(=O)N[C@@H]1C(=O)N[C@H](CC(C)C)C(=O)N[C@H](CC(C)C)C(=O)N(C)[C@@H](CC(C)C)C(=O)N[C@@H](CC(C)C)C(=O)N(C)[C@@H](C)C(=O)N[C@@H](CC(C)C)C(=O)N2CCC[C@@H]2C(=O)O[C@@H]1C | 6.5 |
| CC(=O)N1CCC[C@@H]1C(=O)N(C)[C@H](CC(C)C)C(=O)N[C@@H]1C(=O)N(C)[C@H](CC(C)C)C(=O)N(C)[C@H](CC(C)C)C(=O)N[C@H](CC(C)C)C(=O)N(C)[C@H](C)C(=O)N[C@@H](CC(C)C)C(=O)N2CCC[C@H]2C(=O)O[C@@H]1C | 8.1 |

The 2 highest values of PAMPA among the entries above:

| SMILES | PAMPA (10^-6 cm/s) |
|---|---|
| CC(=O)N1CCC[C@@H]1C(=O)N(C)[C@H](CC(C)C)C(=O)N[C@@H]1C(=O)N(C)[C@H](CC(C)C)C(=O)N(C)[C@H](CC(C)C)C(=O)N[C@H](CC(C)C)C(=O)N(C)[C@H](C)C(=O)N[C@@H](CC(C)C)C(=O)N2CCC[C@H]2C(=O)O[C@@H]1C | 8.1 |
| CC(=O)N1CCC[C@H]1C(=O)N[C@@H]1C(=O)N[C@H](CC(C)C)C(=O)N[C@H](CC(C)C)C(=O)N(C)[C@@H](CC(C)C)C(=O)N[C@@H](CC(C)C)C(=O)N(C)[C@@H](C)C(=O)N[C@@H](CC(C)C)C(=O)N2CCC[C@@H]2C(=O)O[C@@H]1C | 6.5 |